The values below are quoted from earlier work in patent US20030143729A1 (Synaptic Pharmaceutical Corporation, priority 1992, published 2003).

In this data set the target is T1, GAT-3 (Rattus norvegicus, UniProt P31647).
T1 sequence (P31647 1-627): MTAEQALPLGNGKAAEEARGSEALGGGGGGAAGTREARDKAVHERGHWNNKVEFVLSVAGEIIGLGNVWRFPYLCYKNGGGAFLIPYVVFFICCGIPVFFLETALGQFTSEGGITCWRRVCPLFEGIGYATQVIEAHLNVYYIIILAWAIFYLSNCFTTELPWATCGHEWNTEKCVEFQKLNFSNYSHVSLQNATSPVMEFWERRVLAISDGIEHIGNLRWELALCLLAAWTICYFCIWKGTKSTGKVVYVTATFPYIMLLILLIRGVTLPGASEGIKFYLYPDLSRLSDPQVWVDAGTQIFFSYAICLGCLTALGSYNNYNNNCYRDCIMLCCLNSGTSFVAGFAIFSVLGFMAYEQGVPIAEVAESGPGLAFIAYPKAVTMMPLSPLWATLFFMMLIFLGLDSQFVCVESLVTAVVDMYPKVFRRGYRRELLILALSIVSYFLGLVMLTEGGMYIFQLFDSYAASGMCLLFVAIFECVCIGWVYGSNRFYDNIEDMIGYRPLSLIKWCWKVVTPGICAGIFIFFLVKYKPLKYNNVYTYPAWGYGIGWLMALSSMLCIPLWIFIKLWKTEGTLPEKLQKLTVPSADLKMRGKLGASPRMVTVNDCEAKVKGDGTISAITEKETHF
Conditions: read-out: Km for GABA, GAT-3 (ref. 9); cited from earlier work.

For orientation: Km means the substrate concentration at which the rate is half of its maximum. Regarding `NCCCC(=O)O` [GABA, gamma-aminobutyric acid], the Km is 10 µM.
